Experimental data: US20260384421A1, “NOVEL COMPOUNDS THAT CAN BE USED AS THERAPEUTIC AGENTS” (published 2026)
Like-named read-outs stand apart in the source and are kept apart here.

Key:
[1] = tested on: PANC-1 cells; experiment: alamarBlue proliferation assay with PANC-1 cells; details: read-out: Activity on PANC-1: IC50, DMEM medium, 10% FBS
Source text: (§1) These hyperproliferative processes can be benign or malignant and include hyperplasia, neoplasia, cancer and pre-cancerous lesions, and metastases. The antiproliferative activities of compounds falling under general formula (I) were investigated on human primary epidermal keratinocytes (HPEK) and human, murine and canine cell lines derived from hyperproliferative tissue or different cancer types, including MDA-MB-231, ZR-75-30, HCC-1395, HCC-1937, and T-47D all originating from cancer of the breast, JURKAT, RPMI-8402, LOUCY, TANQUE, REC-1, HL-60, NB-4 all originating from different types of blood cancer including lymphoma and leukemia of T-cells, B-cells and myeloid cells, TT originating from cancer of the neuroendocrine system, HeLa originating from cancer of the cervix, 23132/87, SW-948, and HCT-116 all originating from cancer of the gastrointestinal tract including stomach and colon, BHY originating from cancer of the mucosal epithelium, A-431 originating from cancer of the skin, HEP-G2 originating from cancer of the liver, NCI-H460 and A-549 both originating from cancer of the lung, PANC-1 originating from cancer of the pancreas, U-87 MG originating from cancer of the brain, A-375 and RVH-421 both originating from cancer of melanocytes, SW-1353 originating from cancer of bone-derived chondrocytes, C2C12 a mouse cell line originating from hyperproliferative muscle progenitor cells, LL/2 a mouse cell line originating from cancer of the lung, CF21.T a dog cell line originating from cancer of the connective tissue. To this end, according cells were seeded into 96-well plates (CORNING #3598) suitable for fluorescence assays at following initial cell numbers: 1000 cells per well for HPEK; 3000 cells per well for MDA-MB-231, 8000 cells per well for ZR-75-30, 1500 cells per well for HCC-1395, 1500 cells per well for HCC-1937, 3000 cells per well for T-47D, 1500 cells per well for JURKAT, 5000 cells per well for RPMI-8402, 9000 cells per well for LOUCY, 1500 cells per well for TANQUE, 9000 cells per well for REC-1, 1000 cells per well for HL-60, 1000 cells per well for NB-4, 9000 cells per well for TT, 2000 cells per well for HeLa, 2000 cells per well for 23132/87, 9000 cells per well for SW-948, 700 cells per well for HCT-116, 1500 cells per well for BHY, 700 cells per well for A-431, 1500 cells per well for HEP-G2, 500 cells per well for NCI-H460, 1000 cells per well for A-549, 1500 cells per well for PANC-1, 2500 cells per well for U-87 MG, 700 cells per well for A-375, 1500 cells per well for RVH-421, 2000 cells per well for SW-1353, 500 cells per well for C2C12, 500 cells per well for LL/2, and 3000 cells per well for CF21.T. In a volume of 90 μL per well of culture medium the cells were treated with compounds at indicated final concentrations by adding 10 μL per well of 10× compound working solutions from 1:100 pre-diluted 1000× compound DMSO stock-solutions in H2O (Water For Injection, WFI, Fisher Scientific, Gibco™ #A12873) or with the empty carrier DMSO (AppliChem, #A3672) at 0.1% v/v as control yielding a final volume of 100 μL per well. At day 5 after starting the treatments the cells were subjected to the alamarBlue® Proliferation Assay (Bio-Rad Serotec GmbH, BUF012B) according to the protocol of the manufacturer. The readout was taken with a multi-well plate-reader (Tecan Spark®) in the fluorescence mode with applying a filter for excitation at 560 nm (band width 10 nm) and for emission at 590 nm (band width 10 nm). Treatment for maximum proliferation inhibition with the commercial cytotoxic compound (S)-(+)-camptothecin (Fluorochem #M01564) at a concentration of 10 μM was included on each plate for assay quality control. Some of the test compounds of the present invention may have been obtained and applied as their salt forms.
(§2) The assays were performed in duplicate or more replicates of independent single experiments each containing a three- to six-fold replicate for every condition. […]

[2] = tested on: NCI-H460 cells; experiment: alamarBlue proliferation assay with NCI-H460 cells; details: read-out: Activity on NCI-H460: IC50, RPMI 1640 medium, 10% FBS
[3] = tested on: BHY cells; experiment: alamarBlue proliferation assay with BHY cells; details: read-out: Activity on BHY: IC50, DMEM medium, 10% FBS
[4] = tested on: NB-4 cells; experiment: alamarBlue proliferation assay with NB-4 cells; details: read-out: Activity on NB-4: IC50, RPMI 1640 medium, 10% FBS
[5] = tested on: TANQUE cells; experiment: alamarBlue proliferation assay with TANQUE cells; details: read-out: Activity on TANOUE: IC50, RPMI 1640 medium, 10% FBS
[6] = tested on: HPEKp cells; experiment: proliferation assay with human epidermal keratinocyte progenitors (HPEKp), selectivity versus MDA-MB-231
[7] = tested on: MDA-MB-231 cells; experiment: alamarBlue proliferation assay with MDA-MB-231 cells (glucose-free Leibovitz's L-15 medium)
[8] = tested on: SW-1353 cells; experiment: alamarBlue proliferation assay with SW-1353 cells (glucose-free L-15 medium); details: read-out: Activity on SW-1353: IC50, Leibovitz's L-15 medium, 10% FBS, 0% CO2
[9] = tested on: HCT-116 cells; experiment: alamarBlue proliferation assay with HCT-116 cells; details: read-out: Activity on HCT-116: IC50, McCoy's 5A medium, 10% FBS
[10] = tested on: LL/2 cells; experiment: alamarBlue proliferation assay with LL/2 cells; details: read-out: Activity on LL/2: IC50; LL/2 murine Lewis lung carcinoma cells, DMEM medium, 10% FBS
[11] = tested on: U-87 MG cells; experiment: alamarBlue proliferation assay with U-87 MG cells; details: read-out: Activity on U-87MG: IC50, EMEM medium, 10% FBS
Source text: as §1, §2

[12] = tested on: A-549 cells; experiment: alamarBlue proliferation assay with A-549 cells; details: read-out: Activity on A-549: IC50, DMEM medium, 10% FBS
[13] = tested on: T-47D cells; experiment: alamarBlue proliferation assay with T-47D cells; details: read-out: Activity on T-47D (IC50), day 5
Source text: as §1, §2

[14] = tested on: A-375 cells; experiment: alamarBlue proliferation assay with A-375 cells; details: read-out: Activity on A-375: IC50, DMEM medium, 10% FBS
[15] = tested on: CF21.T cells; experiment: alamarBlue proliferation assay with CF21.T cells; details: read-out: Activity on CF21.T: IC50; CF21.T canine cells, DMEM medium, 10% FBS
Source text: as §1, §2

[16] = tested on: mitochondrial transmembrane potential Δψm in A-549 cells; experiment: mitochondrial activity assay (TMRE staining, mitochondrial transmembrane potential) on A-549 cells; details: A-549 cells, compounds at 10 μM, 2 h 40 min, TMRE staining, relative to DMSO = 1.0
[17] = tested on: C2C12 cells; experiment: alamarBlue proliferation assay with C2C12 cells; details: read-out: Activity on C2C12: IC50; C2C12 murine myoblast cells, RPMI 1640 medium, 10% FBS
[18] = tested on: HL-60 cells; experiment: alamarBlue proliferation assay with HL-60 cells; details: read-out: Activity on HL-60: IC50, RPMI 1640 medium, 10% FBS
[19] = tested on: RVH-421 cells; experiment: alamarBlue proliferation assay with RVH-421 cells (glucose-free L-15 medium); details: read-out: Activity on RVH-421: IC50, Leibovitz's L-15 medium, 10% FBS, 0% CO2
[20] = tested on: SW-948 cells; experiment: alamarBlue proliferation assay with SW-948 cells (glucose-free L-15 medium); details: read-out: Activity on SW-948: IC50, Leibovitz's L-15 medium, 10% FBS, 0% CO2
[21] = tested on: HEP-G2 cells; experiment: alamarBlue proliferation assay with HEP-G2 cells; details: read-out: Activity on HEP-G2: IC50, RPMI 1640 medium, 10% FBS
[22] = tested on: A-431 cells; experiment: alamarBlue proliferation assay with A-431 cells; details: read-out: Activity on A-431: IC50, DMEM medium, 10% FBS
[23] = tested on: JURKAT cells; experiment: alamarBlue proliferation assay with JURKAT cells; details: read-out: Activity on JURKAT (IC50), day 5
[24] = read-out: Activity (HPEK), HPEK cells (HPEKp), antiproliferative activity, class by IC50
[25] = read-out: Activity (MDA), MDA-MB-231 cells, antiproliferative activity, class by IC50
[26] = read-out: Activity on MDA-MB-231 (IC50), glucose-free Leibovitz's L-15, 10% FBS, day 5, alamarBlue
[27] = read-out: Activity (HPEK): antiproliferative activity on HPEK cells, IC50 category, HPEK cells cultivated in CnT-Prime medium
[28] = read-out: Activity (MDA): antiproliferative activity on MDA-MB-231 cells, IC50 category, MDA-MB-231 cells cultivated in glucose-free Leibovitz's L-15 medium

| IC50 [1] [nM] | IC50 [2] [nM] | IC50 [6, 24] [nM] | IC50 [7, 25] [nM] | IC50 [7, 26] [nM] | IC50 [8] [nM] | IC50 [9] [nM] | IC50 [11] [nM] | IC50 [12] [nM] | IC50 [6, 27] [nM] | IC50 [7, 28] [nM] | Structure (SMILES) | IC50 [3] [nM] | IC50 [4] [nM] | IC50 [5] [nM] | IC50 [10] [nM] | further results |
| --- | --- | --- | --- | --- | --- | --- | --- | --- | --- | --- | --- | --- | --- | --- | --- | --- |
| ≤ 5000 | ≤ 200 | < 10000 | < 1000 | ≤ 200 | ≤ 200 | ≤ 200 | – | – | – | – | COC1CCC(c2ccc(Oc3ccc(C(=O)N4CCN(Cc5ccccc5)CC4)cc3)c(CO)c2)CC1 (stereo not shown) | ≤ 200 | ≤ 200 | ≤ 200 | ≤ 5000 | – |
| ≤ 5000 | – | < 10000 | < 1000 | ≤ 1000 | ≤ 1000 | – | ≤ 20000 | ≤ 5000 | – | – | O=C(c1ccc(Oc2ccc(C3CCC4(CC3)OCCO4)cc2CO)cc1)N1CC2CN(Cc3ccccc3)CC2C1 (stereo not shown) | – | – | – | – | – |
| – | – | – | – | ≤ 200 | – | ≤ 200 | – | ≤ 200 | – | – | O=Cc1cc(C2CCC3(CC2)SCCS3)ccc1Oc1ccc(C(=O)N2CCN(Cc3ccc(Cl)cc3)CC2)nc1 | ≤ 200 | ≤ 200 | ≤ 200 | ≤ 1000 | IC50 [13]: ≤ 5000 nM; IC50 [14]: ≤ 200 nM; IC50 [15]: ≤ 5000 nM; Activity: relative mitochondrial transmembrane potential Δψm [16]: Δψm ≤0.7 |
| ≤ 20000 | – | – | – | ≤ 200 | ≤ 200 | – | – | ≤ 5000 | < 10000 | < 1000 | O=C(c1ccc(Oc2ccc(C3CCC4(CC3)OCCO4)cc2CO)cc1)N1CCN(Cc2cccc(Cl)c2)CC1 | – | – | – | – | IC50 [17]: ≤ 5000 nM |
| ≤ 5000 | ≤ 5000 | – | – | ≤ 1000 | ≤ 1000 | – | – | ≤ 1000 | < 10000 | < 1000 | O=C(c1ccc(Oc2ccc(C3CCC4(CC3)OCCO4)cc2CO)cc1)N1CCN(Cc2nccs2)CC1 | – | – | – | – | IC50 [18]: ≤ 5000 nM; IC50 [19]: ≤ 1000 nM; IC50 [20]: ≤ 5000 nM |
| ≤ 20000 | – | < 10000 | < 1000 | ≤ 1000 | ≤ 5000 | – | ≤ 20000 | ≤ 5000 | – | – | O=C(c1ccc(Oc2ccc(C3CCC4(CC3)OCCO4)cc2CO)cc1)N1CC2(CN(Cc3ccc(Cl)cc3)C2)C1 | – | – | – | – | – |
| ≤ 20000 | – | – | – | ≤ 200 | ≤ 200 | – | ≤ 20000 | ≤ 200 | < 5000 | < 1000 | C#CCOc1ccc(CN2CCN(C(=O)c3ccc(Oc4ccc(C5CCC6(CC5)N=N6)cc4CO)cc3)CC2)cc1 | – | – | – | – | – |
| ≤ 5000 | ≤ 200 | < 10000 | < 1000 | ≤ 200 | ≤ 200 | ≤ 200 | – | ≤ 200 | – | – | O=C(c1ccc(Oc2ccc(C3CCC4(CC3)OCCO4)cc2CO)cc1)N1CCN(Cc2ccc(Cl)nc2)CC1 | ≤ 200 | ≤ 200 | ≤ 200 | ≤ 1000 | – |
| – | – | – | – | ≤ 200 | – | ≤ 200 | – | ≤ 200 | – | – | CC1(C)COC2(CCC(c3ccc(Oc4ccc(C(=O)N5CCN(Cc6ccc(Cl)cc6)CC5)cc4)c(C=O)c3)CC2)OC1 | ≤ 200 | ≤ 200 | ≤ 200 | ≤ 1000 | IC50 [13]: ≤ 5000 nM; IC50 [14]: ≤ 200 nM; IC50 [15]: ≤ 5000 nM; Activity: relative mitochondrial transmembrane potential Δψm [16]: Δψm ≤0.7 |
| – | – | – | – | ≤ 200 | – | ≤ 200 | – | ≤ 200 | – | – | COc1ccc(CN2CCN(C(=O)c3ccc(Oc4ccc(C5CCC6(CC5)SCCS6)cc4C=O)cn3)CC2)cc1 | ≤ 200 | ≤ 200 | ≤ 200 | ≤ 1000 | IC50 [13]: ≤ 5000 nM; IC50 [14]: ≤ 200 nM; IC50 [15]: ≤ 5000 nM; Activity: relative mitochondrial transmembrane potential Δψm [16]: Δψm ≤0.7 |
| ≤ 20000 | – | – | – | ≤ 1000 | ≤ 1000 | – | ≤ 20000 | ≤ 1000 | < 10000 | < 1000 | O=C(c1ccc(Oc2ccc(C3CCC4(CC3)OCCO4)cc2CO)cc1)N1CCN(Cc2cccnc2)CC1 | – | – | – | – | IC50 [21]: ≤ 5000 nM; IC50 [22]: ≤ 1000 nM |
| ≤ 5000 | ≤ 20000 | – | – | ≤ 1000 | ≤ 1000 | – | ≤ 5000 | ≤ 1000 | > 10000 | < 1000 | Cc1cc(C(=O)N2CCN(Cc3ccccc3)CC2)ccc1Oc1ccc(C2CCC3(CC2)OCCO3)cc1CO | – | – | – | – | IC50 [18]: ≤ 5000 nM; IC50 [19]: ≤ 1000 nM; IC50 [23]: ≤ 20000 nM; IC50 [20]: ≤ 5000 nM |
